{
  "source": "patent US20230183263A1",
  "about": "“COMBINATION FOR TREATING HEPATITIS B” (FUJIAN AKEYLINK BIOTECHNOLOGY CO., LTD., priority 2020, published 2023)",
  "test_system": "D-type HBV",
  "experiment": "Single drug in vitro antiviral activity in HBV-infected PHH (HBV DNA qPCR, HBeAg and HBsAg ELISA)",
  "format": "cell-based, Hepatitis B Virus",
  "description": "Experimental objective: The purpose of this study was to evaluate the in vitro anti-hepatitis B virus efficacy of the test compounds in combination with TAF (tenofovir alafenamide fumarate) and Peg-IFN-α2a (peginterferon α 2a) using human primary hepatocytes (PHH) isolated from a humanized FRG mouse model.\n1. The PHH model was used to evaluate the single drug in vitro antiviral activity of the test compound\nOn day 0, primary human hepatocytes were resuscitated and plated into two 48-well plates (1.32×10^5 cells/well).\nOn day 1, HBV was added to infect PHH (2000 GE/cell). Two kinds of compound treatment methods were set up: One cell plate was treated with the test compound and Peg-IFNα-2a for four hours on day 1, and then the medium was then replaced with an HBV-containing medium to infect cells (at the same time, compounds were added to continue treatment); another plate was treated with test compound and Peg-IFNα-2a started on day 2. Fresh medium with compound was replaced every 1 to 2 days.\nThe final concentration of DMSO in the medium was 2%. The initial concentration of the test compound was 1000 nM, and the initial concentration of the control compound Peg-IFNα-2a was 500 lU/mL with 5-fold dilution, 7 concentration points, and three duplicate wells (see Table 3 for compound concentration settings).\nThe medium was replaced with the fresh medium containing the compound on days 4, 6, 8, 10, 12, 14, 16, 18 and 20. On day 22, the culture supernatant was collected and cell viability was detected using CellTiter-Glo.\nCell culture supernatants on days 8, 14 and 22 were collected for HBV DNA, HBeAg and HBsAg detection.\nHBV DNA detection: DNA in the supernatant was extracted according to the DNA extraction kit (Qiagen-51162), and HBV DNA in the sample was quantified by qPCR method, and the qPCR reaction system is shown in Table 6. HBV plasmid DNA was used as a standard for 10-fold serial dilution, and the standard range was from 1.0× 10^7 copies/µL to 10 copies/µL. The PCR reaction program was: Heating at 95° C. for 10 minutes, then cycle mode was entered, and heating at 95° C. for 15 seconds, then at 60° C. for 1 minute for a total of 40 cycles. The HBV DNA content in the samples was calculated based on the standard curve and the Ct value of each sample.\nDetection of HBeAg and HBsAg: According to the instructions of ELISA kit, the levels of HBeAg and HBsAg in supernatant were detected. The method was briefly described as follows: 50 µL, of standard was taken, and sample and control sample were added into the detection plate, then 50 µL of enzyme conjugate was added to each well, incubated at 37° C. for 60 minutes, and washed with a washing solution and then dried, and then 50 µL of pre-mixed luminescent substrate was added and the mixture was incubated at room temperature for 10 minutes in the dark, and finally the luminescence value was measured by a microplate reader. The content of HBeAg and HBsAg in the sample was calculated according to the standard curve and the chemiluminescence value of each sample.\nInhibition rate %=(1- HBV DNA content or HBsAg content or HBeAg content in the sample/HBV DNA content or HBsAg content or HBeAg content in DMSO control group) × 100\nCC50 and EC50 were calculated by GraphPad Prism software, and the inhibition curve fitting method was sigmoidal dose-response (variable slope).",
  "key": {"[1]": {"details": "administration before infection"}},
  "data": [
    {"substance": "peginterferon α 2a [Peg-IFNα-2a]", "values": [
      {"measurement": "EC50 (Day 8) HBV DNA", "setting": "administration after infection", "result": 0.81, "unit": "IU/mL"},
      {"measurement": "EC50 (Day 8) HBeAg", "setting": "administration after infection", "result": 13.5, "unit": "IU/mL"},
      {"measurement": "EC50 (Day 8) HBsAg", "setting": "administration after infection", "result": 42.76, "unit": "IU/mL"},
      {"measurement": "EC50 (Day 8) HBV DNA", "setting": "[1]", "result": 3.59, "unit": "IU/mL"},
      {"measurement": "EC50 (Day 8) HBeAg", "setting": "[1]", "result": 8.53, "unit": "IU/mL"},
      {"measurement": "EC50 (Day 8) HBsAg", "setting": "[1]", "result": 23.49, "unit": "IU/mL"}
    ]}
  ]
}
